Data published in ChEMBL document CHEMBL1135262, “Noncovalent tripeptidic thrombin inhibitors incorporating amidrazone, amine and amidine functions at P1” (Bioorg Med Chem Lett, 2002).
pKi: −log10 of the molar value.

Molecular target: Prothrombin (Homo sapiens, UniProt P00734)
Experiment: Binding affinity against human thrombin

pKi: 8.28
SMILES: CS(=O)(=O)N[C@@H](C(=O)N1CCC[C@H]1C(=O)NCc1csc(CN)c1)C(c1ccccc1)c1ccccc1
